{
  "sequences": {"note": "Chains of the proteins cited; added tags and fusions are not shown. Residues count along the entry.", "UniProt P55210, 24-198 limits assumed": "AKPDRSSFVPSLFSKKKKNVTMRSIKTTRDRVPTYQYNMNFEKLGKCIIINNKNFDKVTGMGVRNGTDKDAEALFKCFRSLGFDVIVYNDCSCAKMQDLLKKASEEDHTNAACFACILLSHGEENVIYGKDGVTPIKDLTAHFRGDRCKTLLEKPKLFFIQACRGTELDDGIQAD", "UniProt P55210, 207-303 limits assumed": "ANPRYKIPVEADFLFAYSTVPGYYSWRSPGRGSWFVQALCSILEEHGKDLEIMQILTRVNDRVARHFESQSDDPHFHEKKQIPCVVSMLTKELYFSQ"},
  "source": "PubChem BioAssay AID889",
  "about": "(National Center for Advancing Translational Sciences (NCATS), 2007)",
  "note": "The entries are a selection whose mix differs from that of the whole data set. Results filed as inconclusive are left out. Active and inactive are the calls of the source. Calls follow the shape of the dose curve; as a rule, active = well fitted inhibition curve with a large enough effect in the main read-out, with a control signal flat (not every such curve was filed as active); inconclusive = small, poorly fitted or top-dose-only effect, or a change in a side signal; inactive = flat fitted curve, though single readings scatter.",
  "data": [
    {"target": "Caspase-7 (Homo sapiens) (UniProt P55210)", "assay": "qHTS Assay for Allosteric/Competitive Inhibitors of Caspase-7; also: % of control where 0% means no effect", "conditions": "recombinant caspase-7, Ac-DEVD-AFC fluorescence rate; at 57.5 µM (top of the series)", "source_text": "NIH Molecular Libraries Screening Centers Network [MLSCN]\nNIH Chemical Genomics Center [NCGC]\nPI Name: Dr. James Wells,\nDr. Enrique Perez-Paya, Dr.Janice Williams, Dr. Dennis Wolan, a person\nThe caspases (Cysteine Aspartyl Protease) comprise a related family of 14 dimeric proteases that are critical mediators of apoptosis (programmed cell death) and inflammation. The caspases represent an important class of drug targets for stroke, ischemia, cancer and inflammatory diseases. […] One goal of this project was to identify compounds that act as allosteric inhibitors via stabilizing the procaspase form of the enzyme. […]\nThe biochemical assay was configured using purified caspase 7 at a high enzyme concentration to promote formation of the homodimers and thus facilitate the identification of allosteric inhibitors. […] After initiation of the assay with substrate the plates were rapidly read using an automated robotic system (Kalypsys, Inc.) to maintain consistent timing. […]\nCaspase 7 was prepared in buffer (50 mM HEPES pH 7.5, 50 mM KCl, 200 mM NaCl, 10 mM DTT, 0.1% CHAPS) at a concentration of 66.6 nM and 3 uL was dispensed to all wells using black solid Kalypsys 1536-well plates. […] The plates were then exposed using 405 nm excitation/520 nm emission filters for 4 sec and read at 20 sec intervals for 3 min. […]", "values": [
      {"smiles": "CN(CCCl)CCCl", "activity change, negative = inhibition": "inactive: -2.3%"},
      {"smiles": "O=[N+]([O-])C(Cl)(Cl)Cl", "activity change, negative = inhibition": "inactive: 0.777%"}
    ]}
  ]
}
